For 99 compounds, activation results are on record in PubChem BioAssay AID624038 (The Scripps Research Institute Molecular Screening Center, 2012).

Sequences of proteins named here, by UniProt entry; tags and fusion partners are left off.
UniProt P08912, whole entry, looked up: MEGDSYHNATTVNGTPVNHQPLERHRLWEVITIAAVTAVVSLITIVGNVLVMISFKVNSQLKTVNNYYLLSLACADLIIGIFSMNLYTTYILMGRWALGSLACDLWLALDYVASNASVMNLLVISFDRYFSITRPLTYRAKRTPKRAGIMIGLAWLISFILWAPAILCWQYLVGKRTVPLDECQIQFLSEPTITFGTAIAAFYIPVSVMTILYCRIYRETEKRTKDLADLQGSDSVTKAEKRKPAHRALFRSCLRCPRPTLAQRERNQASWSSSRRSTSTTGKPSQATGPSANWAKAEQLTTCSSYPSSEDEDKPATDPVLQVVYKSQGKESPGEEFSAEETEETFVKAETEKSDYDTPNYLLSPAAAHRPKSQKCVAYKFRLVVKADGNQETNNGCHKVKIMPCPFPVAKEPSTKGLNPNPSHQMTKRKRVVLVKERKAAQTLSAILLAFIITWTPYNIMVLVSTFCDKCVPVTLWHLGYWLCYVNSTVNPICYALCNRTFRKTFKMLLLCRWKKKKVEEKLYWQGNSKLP

This is a selection; strong and weak results do not stand in their true shares. The source made the active and inactive calls.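 How the source made its calls: active means activation above the run cutoff, the mean activation of all test compounds plus 3 SD (cut at about 18% in these data); inactive means the rest.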

In this assay the target is Muscarinic acetylcholine receptor M5 (Homo sapiens) (UniProt P08912). Description: CHRM5 PAMs potentiating acetylcholine calcium signal – CHO-K1 cells, Fluo-8 calcium fluorescence, primary screen (AID 624038). As to conditions: CHO-K1 hM5, Fluo-8 calcium, ACh EC20 PAM; at 3 µM; hits give high values; 0% = ACh EC20, 100% = ACh EC100.
Regarding `Cc1cc(SC(NC=O)C(Cl)(Cl)Cl)ncn1` (centres undefined), the activation was inactive: 12.2%.
Regarding `O=P(Nc1ccccn1)(c1cccc2ccccc12)c1cccc2ccccc12`, the activation is inactive: 2.48%.
The figure for `O=[N+]([O-])c1ccc(Nc2ccc(Oc3ccc([N+](=O)[O-])cc3[N+](=O)[O-])cc2)c([N+](=O)[O-])c1` is inactive: -2.82%; for `CCOC(=O)Nc1cccc([As](=O)(O)O)c1` it is inactive: 2.7%; for `COP(=O)(OC)N1CC1c1ccccc1` (centres undefined) it is inactive: -1.71%.
`Cc1cc(SC(NC(=O)c2ccccc2)C(Cl)(Cl)Cl)nc(C(C)C)n1` (centres undefined): the activation is inactive: -2.86%.
For `O=C(O)C(O)c1ccc(N(CCCl)CCCl)cc1` (centres undefined) the value was inactive: 0.11%; for `CCOC(=O)Nc1ccc([As](=O)(O)O)c(O)c1`, inactive: 8.32%.
As to `CC1CCNP(=O)(N(CCCl)CCCl)O1` (centres undefined), the activation was inactive: -1.58%.
The figure for `C/C=C1/CC(C)C(C)(O)C(=O)OCC2CCN3CCC(OC1=O)C23` (centres undefined) is inactive: -20.5%; for `CCC(C)N(CC(C)C)C(=S)SC(NC(C)=O)C(Cl)(Cl)Cl` (centres undefined) it is inactive: 7.02%.
Consider `O=C(OC1CN2CCC1CC2)c1cccc([N+](=O)[O-])c1` (centres undefined), for which the activation was inactive: -10.1%.
With `CSc1ccc(Nc2c([N+](=O)[O-])cc([N+](=O)[O-])cc2[N+](=O)[O-])cc1`, the activation is inactive: -15.7%.
The figure for `CCOC(=O)c1ccc(NC(=O)C(C)(CCl)SC)cc1` (centres undefined) is inactive: -2.88%; for `O=C(O)C(=O)c1ccc(N(CCCl)CCCl)cc1` it is inactive: -1.83%; for `O=C(COc1ccccc1)OC1CN2CCC1CC2` (centres undefined) it is inactive: -26.2%.
In the case of `O=C(Nc1ccncc1[N+](=O)[O-])c1ccc([N+](=O)[O-])cc1[N+](=O)[O-]`, the activation is inactive: -3.2%.
Turning to `COP1(=S)c2c(C)nn(CCC#N)c2N=C(c2ccc(F)cc2)N1C` (centres undefined), the activation is inactive: 0.35%.
With `COC(=O)C1(C)COP(=O)(N2CCCC2)OC1` (centres undefined), the activation is inactive: -5.94%.
As to `O=[N+]([O-])c1cc(Oc2ccc([N+](=O)[O-])cc2C(F)(F)F)cc([N+](=O)[O-])c1`, the activation is inactive: -5.22%.
For `COc1ccc(N/C(=N/P(=O)(N2CCOCC2)N2CCOCC2)N2CCOCC2)cc1`, the activation is inactive: 5.36%.
Take `O=P1(N(CCCl)CCCl)OCCCN1CCCl` (centres undefined): the activation was inactive: 3.33%.
The figure for `O=P1(N(CCCl)CCCl)Nc2ccccc2N1` is inactive: -5.2%.
On to `COc1ccc2nc(NP(=O)(c3ccccc3)c3ccccc3)sc2c1`, for which the activation is inactive: -3.16%.
For `COc1cc(I)ccc1[As](=O)(O)O`, the activation was inactive: 8.34%.
The figure for `Cc1c2c(nc3ccccc13)SC(C(Cl)Cl)C2` (centres undefined) is inactive: -8.32%; for `O=C(OC1CN2CCC1CC2)C12CC3CC(CC(C3)C1)C2` (centres undefined) it is inactive: -43.1%.
The figure for `Cc1cc(=O)[nH]c(N[N+](=O)[O-])n1` is inactive: -6.67%.
On to `CCN(CC)C(=S)SC(NC=O)C(Cl)(Cl)Cl` (centres undefined), for which the activation is inactive: -7.18%.
On to `O=C(OC1CN2CCC1CC2)c1cccc2[nH]cnc12` (centres undefined), for which the activation is inactive: 13.6%.
The figure for `CC(C)NC(=O)NP(=O)(Oc1ccccc1)Oc1ccccc1` is inactive: 5.75%; for `O=[N+]([O-])c1cc([N+](=O)[O-])c(-c2ccn[nH]2)s1` it is inactive: -3.72%; for `ClCCSc1nnc(-c2cccnc2)o1` it is inactive: -0.64%.
The figure for `CC(C)c1ccc(OP(=O)(Nc2ccccn2)Oc2ccccc2F)cc1` (centres undefined) is inactive: -1.06%.
The figure for `COC(=O)C1(C)COP(=O)(N2CCCCCC2)OC1` (centres undefined) is inactive: -3.04%.
With `Cc1ccc(OP(=O)(Nc2ccc([N+](=O)[O-])cn2)Oc2ccc(C)cc2)cc1`, the activation was inactive: 1.4%.
For `[N-]=[N+]=NC1CCCCC1NC(=O)c1cc([N+](=O)[O-])cc([N+](=O)[O-])c1` (centres undefined) the value was inactive: -1.18%; for `CC(Cc1ccc(O)cc1)NCC(O)c1cc(O)cc(O)c1` (centres undefined), inactive: 3.01%.
The figure for `Cc1ccc2nc3c(c(C)c2c1)CC(C(Cl)Cl)S3` (centres undefined) is inactive: -2.58%; for `O=[As](O)(c1ccc(O)cc1)c1ccccc1O` it is inactive: 8.78%; for `C[As](=O)(O)c1cccc(C(=O)O)c1` it is inactive: -3.35%.
In the case of `O=[N+]([O-])c1ccc(-c2cc([N+](=O)[O-])c(O)c([N+](=O)[O-])c2)cc1`, the activation is inactive: -0.1%.
For `N#CCCN(C(=O)COC(=O)C(O)(c1ccccc1)c1ccccc1)c1ccc(F)cc1` the value was inactive: -3.65%; for `CN(C(=O)Cc1ccccc1)[C@@H]1CC[C@]2(CCCO2)C[C@H]1N1CCCC1`, inactive: 2.71%.
With `CCOP1(=S)c2c(C)nn(CCC#N)c2N=C(c2ccc(F)cc2)N1C` (centres undefined), the activation was inactive: -5.98%.
As to `CN(C)C(=O)c1cc([N+](=O)[O-])cc2c1-c1c(cc([N+](=O)[O-])cc1[N+](=O)[O-])C2=O`, the activation is inactive: 5.69%.
For `O=[N+]([O-])c1ccc2c(c1)nnn2O` the value was inactive: -2.78%.
The figure for `CN(C(=O)Cc1ccc(Cl)c(Cl)c1)[C@H]1CC[C@@]2(CCCO2)C[C@@H]1N1CCCC1` is inactive: -1.96%; for `NC(=O)Nc1ccc([As](=O)(O)O)cc1` it is inactive: -0.09%.
For `O=C(O)COc1ccc([As](=O)(O)O)cc1[N+](=O)[O-]` the value was inactive: 14.3%.
Turning to `Nc1ccccc1[As](=O)(O)c1ccccc1`, the activation is inactive: 12.2%.
The figure for `CCOP1(=S)c2c(C)nn(CCC#N)c2N=C(c2ccccc2F)N1C` (centres undefined) is inactive: -6.15%.
As for `O=P(Nc1nccs1)(c1ccccc1)c1nc2ccccc2s1` (centres undefined), the activation is inactive: 2.93%.
For `O=P(Nc1nccs1)(Oc1ccccc1)Oc1ccccc1`, the activation was inactive: 4.71%.
On to `CS(=O)(=O)c1cc([N+](=O)[O-])c2no[n+]([O-])c2c1`, for which the activation was inactive: 2.58%.
The figure for `COc1cc(C2NCCC3(OCCO3)C2(C)C)cc(OC)c1OC` (centres undefined) is inactive: 0.64%; for `CCOP(=O)(Nc1cccc2ccccc12)OCC` it is inactive: 5.84%.
The figure for `Cc1ccc(NCCc2c([N+](=O)[O-])cc([N+](=O)[O-])cc2[N+](=O)[O-])cc1` is inactive: 3.63%.
The figure for `Nc1cccc2c([As](=O)(O)O)cccc12` is inactive: 1.43%.
Take `CCCOP(=S)(Nc1nc(N)cc(=O)[nH]1)OCCC`: the activation is inactive: -0.68%.
The figure for `C[C@H]1C(=O)O[C@@H]2CCN3CC=C(COC(=O)[C@](C)(O)[C@]1(C)O)[C@H]23` is inactive: 4.04%; for `O=[As](O)(c1cccc(O)c1)c1cccc(O)c1` it is inactive: 4.18%.
As to `Cc1cccc(OCC(=O)OC2CN3CCC2CC3)c1` (centres undefined), the activation was inactive: -14.5%.
With `O=C(OC1CN2CCC1CC2)c1ccc(Cl)cc1` (centres undefined), the activation was inactive: -22.7%.
For `O=[As](O)(O)c1cccnc1`, the activation was inactive: 4.15%.
For `CS(=O)(=O)c1ccc(Cl)c(NC(=O)COC(=O)C(O)(c2ccccc2)c2ccccc2)c1` the value was inactive: 0.12%.
The figure for `CN(C(=O)Cc1ccc(Cl)c(Cl)c1)[C@@H]1CCCC[C@H]1N1CCCC1` is inactive: 0.44%; for `CC(C)/C=N\N=C(\N)N[N+](=O)[O-]` it is inactive: -1.01%; for `CC1(CBr)Cn2c(nc3ccccc3c2=O)S1` (centres undefined) it is inactive: -2.25%.
For `COc1ccccc1CNC(=O)COC(=O)C(O)(c1ccccc1)c1ccccc1`, the activation is inactive: -1.01%.
Turning to `Clc1n[nH]nc1-c1nn[nH][15n]1`, the activation is inactive: -2.32%.
Take `O=P1(N(CCCl)CCCl)NCCC(C(F)(F)F)O1` (centres undefined): the activation is inactive: -2.2%.
Take `CC(C)(C)C(=O)NC(Sc1ncccn1)C(Cl)(Cl)Cl` (centres undefined): the activation was inactive: 9.67%.
With `CCC1=CC2Cc3nc4ccc(Cl)cc4c(N)c3C(C1)C2` (centres undefined), the activation is inactive: -13.5%.
For `O=P1(Nc2ccccn2)COc2ccccc2OC1` the value was inactive: 1.26%; for `CCOP(=O)(NC(=NC(C)c1ccccc1)NC(C)c1ccccc1)OCC` (centres undefined), inactive: 4.29%.
For `CN(CCCl)Cc1cc(Cl)c(NC2=NCCN2)c(Cl)c1`, the activation is inactive: 4.39%.
With `CCOP(=O)(Nc1ccc(C)cn1)OCC`, the activation is inactive: -2.22%.
The figure for `Nc1cccc([As](=O)(O)c2ccccc2)c1` is inactive: -2.75%; for `NS(=O)(=O)c1cccc(NC(=O)COC(=O)C(O)(c2ccccc2)c2ccccc2)c1` it is inactive: -7.64%; for `O=P1(Nc2ccc(Br)cn2)COc2ccccc2OC1` it is inactive: -0.29%.
The figure for `Cc1ccc(OCC(=O)OC2CN3CCC2CC3)cc1` (centres undefined) is inactive: -24.5%; for `O=[As](O)(c1cccs1)c1cccs1` it is inactive: 2.91%.
As to `Cc1ccc(S(=O)(=O)N(CCCN)CCCc2c(C)nc(N)[nH]c2=O)cc1`, the activation is inactive: 3.41%.
In the case of `O=P1(Nc2ncccn2)COc2ccccc2OC1`, the activation was inactive: 0.12%.
The figure for `O=C(/C=C/c1ccccc1)OC1CN2CCC1CC2` (centres undefined) is inactive: 0.97%.
Take `CCCC1OP(=O)(Nc2ccccc2)OCC1CC` (centres undefined): the activation is inactive: 8.54%.
With `Cc1nn(-c2ccccc2)c2c1P(=O)(N1CCOCC1)N(C)C(c1ccccc1)=N2` (centres undefined), the activation is inactive: 3.94%.
Take `Cc1ccc(C(=O)OC2CN3CCC2CC3)cc1` (centres undefined): the activation was inactive: -4.67%.
For `CC1CCC(C(C)C)C(OP(=O)(Nc2ccccn2)c2ccccc2)C1` (centres undefined) the value was inactive: -9.58%; for `O=C(OC1CN2CCC1CC2)c1cccc(Cl)c1` (centres undefined), inactive: -17.5%; for `Nc1ccc([As](=O)(O)c2ccc([N+](=O)[O-])cc2)cc1`, inactive: -7.3%.
The figure for `C(Cc1nn[nH]n1)Cc1nn[nH]n1` is inactive: 0.88%; for `O=[As](O)(c1ccccc1)c1ccc(O)cc1` it is inactive: -3.14%.
Regarding `CC(=O)NC(SC(=S)N(C)C)C(Cl)(Cl)Cl` (centres undefined), the activation was inactive: -1.33%.
For the compound `O=[N+]([O-])c1ncn(CCn2cnc([N+](=O)[O-])n2)n1`, the activation was inactive: 9.55%.
For `O=[N+]([O-])c1ccc(O)c(/C=N/Nc2ccc([N+](=O)[O-])cc2[N+](=O)[O-])c1` the value was inactive: -4.37%; for `O=P(Nc1nc2ccccc2s1)(c1ccccc1)c1ccccc1`, inactive: -3.64%.
As to `C[C@H]1OP(=O)(Oc2ccccc2)[C@H](O)[C@H](O)[C@H]1N=[N+]=[N-]` (some centres undefined), the activation is inactive: -2.17%.
